How the values were obtained:
[1] = target: T1, Prostaglandin E2 receptor EP2 subtype (Homo sapiens, UniProt P43116); assay: Agonist activity at human EP2 receptor expressed in HEK293T/17 cells assessed as increase in GalphaS-mediated CREB activation measured after 6 to 24 hrs by SEAP reporter gene-based chemiluminescence assay; assay type: functional, cell-based
[2] = target: T1, Prostaglandin E2 receptor EP2 subtype; assay: Displacement of [3H]PGE2 from human recombinant EP2 receptor expressed in HEK293 cell membranes after 120 mins by liquid scintillation counting method
[3] = target: T1, Prostaglandin E2 receptor EP2 subtype; assay: Agonist activity at human EP2 receptor expressed in HEK293T/17 cells assessed as increase in intracellular cAMP level incubated for 30 mins by ELISA; assay type: functional, cell-based

Protein sequences, listed by entry. Tags and fused reporters are not part of them. Lines headed by an entry give the natural chain unless they say otherwise; changes in a name come on top.
UniProt P43116: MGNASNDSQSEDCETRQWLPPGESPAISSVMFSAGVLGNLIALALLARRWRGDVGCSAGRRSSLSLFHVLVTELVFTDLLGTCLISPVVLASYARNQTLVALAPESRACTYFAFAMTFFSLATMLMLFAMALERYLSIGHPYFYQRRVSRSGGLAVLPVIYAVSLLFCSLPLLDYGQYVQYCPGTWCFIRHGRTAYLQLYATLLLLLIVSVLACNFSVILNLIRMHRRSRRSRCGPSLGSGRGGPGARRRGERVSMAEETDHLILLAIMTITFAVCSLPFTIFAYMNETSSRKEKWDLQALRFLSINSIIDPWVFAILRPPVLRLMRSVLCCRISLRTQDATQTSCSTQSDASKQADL

CCCCC[C@H](O)/C=C/[C@H]1[C@H](O)CC(=O)[C@@H]1C/C=C\CCCC(=O)O [DINOPROSTONE]
EC50 [1]: 9.3 nM
Ki [2]: 1.03 nM
EC50 [3]: 331 nM

From ChEMBL document CHEMBL4385611, “Difluoromethylene at the γ-Lactam α-Position Improves 11-Deoxy-8-aza-PGE1 Series EP4 Receptor Binding and Activity: 11-Deoxy-10,10-difluoro-8-aza-PGE1 Analog (KMN-159) as a Potent EP4 Agonist” (J Med Chem, 2019)
